Only some compounds are listed: those with a hit (about 0.94% of all), similar ones and a draw of the others.
PKA-R1A act – activators of PKA-R1A complex | 340,000 tested, 0.083% active | PKA-R1A dissociation, Cy5-IP20 fluorescence polarization; scaled: DMSO 0%, 113 µM cGMP 100% | P00514+P68181 | activation, % at 11.4 µM;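 active means percent activation above the mean of all tested compounds plus 3 SD, cut at about 19% in these data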;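 further: higher means more PKAc released from R1A so a rise in polarization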
pCIP destab – compounds decreasing mouse p/CIP protein stability; Q05BA5; F442A p/CIP-EGFP cells, EGFP fluorescence, 16 h; decrease of EGFP signal, % at 10 µM; 290,000 tested, 0.01% active; AID 1984;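 active means EGFP signal decrease of at least 30% at 10 µM or well 3 SD below plate mean, unless failing retest; inactive means the rest, including hits failing retest or dose response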
Yeast UUG start – alters start codon recognition fidelity in yeast; S. cerevisiae UUG-firefly luciferase reporter, luminescence/redox ratio; activity score, % at 18.7 µM; actives 0.13% (n = 350,000); AID 602363;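 active = replicate mean at a twofold rise or more, about +100% in these data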;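 also: firefly luciferase made from a UUG start codon reports start codon fidelity; reporter light over untreated wells divided by growth signal over untreated wells; some hits fall short of that in this replicate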
Exocytosis inh – lytic granule exocytosis inhibition; TALL-104 LAMP-1 surface exposure, flow cytometry; cells stimulated with thapsigargin and PMA; inhibition, % at 10 µM; 360,000 tested, 0.66% active; AID 651702;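 active means inhibition above about 55%, limit read from the data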
PKA-R2B activ – activates the human PKA-R2B holoenzyme complex | PKA-R2B holoenzyme dissociation, Cy5-IP20 fluorescence polarization; R2B truncated from residue 108, S112A mutant; 0% DMSO only, 100% 113 µM cGMP | activation, % at 11.4 µM | 340,000 tested, 0.079% active | AID 504700;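 active means activation above a cutoff set at the mean over all compounds plus 3 SD, cut at about 18% in these data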;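 further: higher means more holoenzyme dissociation and a rise in polarization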
ABCB6 inh MLPCN – blocks the human ABCB6 transporter | K562-ABCB6 porphyrin accumulation, flow cytometry, 1 h; hits give low values | fluorescence ratio to DMSO, % at 10 µM | 360,000 tested, 0.19% active | AID 602162;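 active means fluorescence ratio to DMSO below 75%, the collection mean minus 3 SD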;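 further: signal is porphyrin accumulated inside mitochondria; 100% equals median channel fluorescence of DMSO control wells; lower ratio means ABCB6 inhibition with less porphyrin fluorescence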
ABCB6 inh CP1 – blocks the human ABCB6 transporter; ratio response (% of DMSO), % at 10 µM; K562-ABCB6 porphyrin accumulation, flow cytometry, 1 h; hits give low values; 700 tested, under 10 active; AID 602430; shares compounds with ABCB6 inh MLPCN;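 active means repeat-averaged ratio response below 75% of DMSO, the collection mean minus 3 SD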;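 further: median porphyrin fluorescence at 575 nm with 488 nm excitation from mitochondria; lower ratio means less porphyrin signal so ABCB6 inhibition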
Numbers without * were called inactive; . = no result.

| nr | SMILES | PKA-R1A act | pCIP destab | Yeast UUG start | Exocytosis inh | PKA-R2B activ | ABCB6 inh MLPCN | ABCB6 inh CP1 |
| --- | --- | --- | --- | --- | --- | --- | --- | --- |
| 1 | Cn1nc(-c2ccc(C(=O)N3CCN(CCO)CC3)cc2)c2ccccc2c1=O | -7 | -9 | -6 | 8 | -7 | 72* | 97 |
| 2 | CCn1cc([N+](=O)[O-])c(C(=O)N2N=C3/C(=C/c4cccs4)CCCC3C2c2cccs2)n1 (stereo not drawn) | 4 | -4 | -10 | -1 | -8 | 66* | 100 |
| 3 | CCc1ccc(CNC(=O)C2Cc3cc(S(=O)(=O)N4CCCC4)ccc3N2C(C)=O)cc1 (stereo not drawn) | -4 | 1 | -24 | 0 | -1 | 5.0* | 99 |
| 4 | COc1ccc(N(CC(=O)NC(C)C)S(=O)(=O)c2ccc(NC(C)=O)cc2)cc1 | -6 | 2 | -10 | 0 | 2 | 69* | 98 |
| 5 | COc1ccc(-n2c(COc3ccccc3)nnc2SCc2ccc(C#N)cc2)cc1 | -4 | -11 | 7 | 0 | -23 | 51* | 99 |
| 6 | NC(c1ccccc1)c1csc(Nc2ccc(C(F)(F)F)cn2)n1 (stereo not drawn) | . | . | -14 | 4 | . | 71* | 101 |
| 7 | C/C=C(\C)CN1CCN(c2ccccc2F)CC1 | -3 | 0 | -9 | -3 | -2 | 99 | . |
| 8 | C/C=C(\C)CN1CCN(c2cccc(C)c2C)CC1 | -7 | -3 | -11 | -4 | -2 | 24* | 95 |
| 9 | O=C(c1ccccn1)N1C[C@@H]2[C@H](c3ccccc31)[C@@H](CO)N2C(=O)CC1CC1 | . | . | -12 | . | . | . | . |
| 10 | O=C(Nc1cccc(Cl)c1)c1cc2c(=O)n3ccccc3nc2s1 | 1 | 5 | -12 | -1 | -8 | 93 | 104 |
| 11 | C[C@@H]1CN([C@@H](C)CO)C(=O)c2cccc(NC(=O)Nc3ccccc3)c2O[C@@H]1CN(C)Cc1ccncc1 | . | . | 14 | . | . | . | . |
| 12 | COc1ccc(-c2cnn3c(N)c(S(=O)(=O)C(C)(C)C)cnc23)cc1 | -5 | -3 | -13 | 2 | -16 | 68* | 97 |
| 13 | CC(C)(C)S(=O)(=O)c1cnc2c(-c3ccc(Cl)cc3)cnn2c1N | 0 | -4 | -10 | 5 | -6 | 102 | . |
| 14 | Cc1ccc(CNC(=O)CCc2nnc3ccc(N4CCC5(CC4)OCCO5)nn23)cc1 | -13 | 7 | -3 | 0 | -4 | 100 | . |
| 15 | CCN1CCN(C(=O)CCc2nnc3ccc(N4CCC5(CC4)OCCO5)nn23)CC1 | 7 | -9 | -4 | -2 | -7 | 95 | 102 |
| 16 | CC1CCN(C(=O)CCc2nnc3ccc(N4CCC5(CC4)OCCO5)nn23)CC1 | -5 | -11 | -10 | -2 | -4 | 100 | 99 |
| 17 | COc1ccc(NC(=O)N(C)C[C@@H]2Oc3ccc(NC(=O)CCC(F)(F)F)cc3CC(=O)N([C@@H](C)CO)C[C@H]2C)cc1 | . | . | 8 | . | . | . | . |
| 18 | CCCN(C)C[C@H]1OCCCC[C@H](C)Oc2ccc(NC(=O)Cc3ccccc3)cc2C(=O)N([C@@H](C)CO)C[C@H]1C | . | . | 10 | . | . | . | . |
| 19 | CC(C)c1cc(NCCOCCO)n2c(nc3ccccc32)c1C#N | -11 | 4 | . | -21 | 5 | 73* | 99 |
| 20 | O=C(C[C@H]1C[C@@H]2c3cc(NC(=O)Nc4ccccc4F)ccc3O[C@@H]2[C@@H](CO)O1)NC1CCCC1 | . | . | 7 | . | . | . | . |
| 21 | CCN(CC)S(=O)(=O)c1ccc(C)c(NC(=O)CN2C(=O)NC3(CCCC3)C2=O)c1 | -4 | -15 | -7 | 3 | -5 | 74* | 96 |
| 22 | CN(C)C(=O)c1cccc(-c2ccc3c(c2)[C@H]2[C@H](CCN2S(=O)(=O)c2ccccc2)[C@@H](CO)N3)c1 | . | . | -2 | . | . | . | . |
| 23 | Clc1nnc(Cl)c2c1ncn2Cc1ccccc1 | -5 | -6 | . | -10 | 5 | 73* | 100 |
| 24 | CCC(=O)N1CCCCN2[C@@H](CO)[C@@H](c3ccc(C#Cc4cccnc4)cc3)[C@@H]2C1 | . | . | -5 | . | . | . | . |
| 25 | Cn1c(CN2CCOCC2)c(C#N)c2ccccc21 | -8 | -8 | 8 | 4 | -9 | 60* | 100 |
| 26 | Cc1cc(NC(=O)c2cc(S(=O)(=O)N3CCCCC3)ccc2C)no1 | -8 | . | -14 | 20 | -7 | 107 | . |
| 27 | Cc1cc(NC(=O)c2cccc(S(=O)(=O)N3CCCCCC3)c2)no1 | -5 | -6 | -6 | 3 | -2 | 70* | 99 |
| 28 | O=S(=O)(c1ccc2ccccc2c1)N1CCN(C2CCN(Cc3ccccc3)CC2)CC1 | 8 | -2 | -1 | 2 | 3 | 48* | 97 |
| 29 | O=S(=O)(c1ccccc1)N1CCN(C2CCN(Cc3ccccc3)CC2)CC1 | 3 | -1 | -9 | 0 | 5 | 100 | . |
| 30 | COC(=O)C1CCN(S(=O)(=O)c2c[nH]c(=O)[nH]c2=O)CC1 | 5 | . | -20 | -6 | -5 | 94 | 99 |
| 31 | COC(=O)C1CCN(S(=O)(=O)c2ccc(Br)s2)CC1 | -7 | . | -15 | 4 | 7 | 90 | 97 |
| 32 | C[C@@H]1CN([C@@H](C)CO)C(=O)Cc2cc(NC(=O)c3ccncc3)ccc2O[C@H]1CN(C)CC1CCCCC1 | . | . | -7 | . | . | . | . |
| 33 | CC(C)(C)c1ccc(Cn2nnc3c(=O)[nH]c(C4CCCN(C(=O)Cc5cccs5)C4)nc32)cc1 (stereo not drawn) | -9 | -10 | 13 | 18 | -16 | 93 | . |
| 34 | CC(C)(C)c1ccc(Cn2nnc3c(=O)[nH]c(C4CCN(C(=O)Cc5cccs5)CC4)nc32)cc1 | -3 | -16 | 4 | -2 | 9 | 68* | 96 |
| 35 | O=C(Cc1cccs1)N1CCC(c2nc3c(nnn3Cc3ccccc3)c(=O)[nH]2)CC1 | -4 | -16 | 3 | 5 | -2 | 99 | 101 |
| 36 | COc1ccc(C(=O)C2CCCN(C(=O)c3cccs3)C2)cc1F (stereo not drawn) | -10 | -8 | . | 0 | -8 | 71* | 99 |
| 37 | COc1ccc(CN2CCN(c3ncccn3)CC2)c(C)c1C | 4 | -1 | 5 | 7 | -10 | 97 | . |
| 38 | COc1cc(C)c(CN2CCN(c3ncccn3)CC2)cc1C | . | . | -6 | -2 | . | 16* | 97 |
| 39 | CCCNC(=O)N1[C@H](CO)[C@H](c2ccccc2)[C@H]1CNC(C)=O | . | . | -10 | . | . | . | . |
| 40 | CCc1ccc(C(O)c2ncc(-c3ccccc3OC)[nH]2)cc1 (stereo not drawn) | . | . | -24 | -5 | . | 73* | 98 |
| 41 | Cc1cc(NC(=O)c2c(F)cccc2Cl)n(-c2nc3ccccc3[nH]2)n1 | -14 | 9 | -2 | -2 | 1 | 102 | . |
| 42 | Cc1cc(NC(=O)c2c(F)cccc2F)n(-c2nc3ccccc3[nH]2)n1 | -1 | -4 | -7 | 0 | -5 | 71* | 95 |
| 43 | CCn1c(SCC(=O)n2c(C)c(C)c3ccccc32)nnc1-c1ccco1 | -9 | -3 | . | 2 | -11 | 73* | 99 |
| 44 | CCn1c(SCC(=O)Nc2ccc3c(c2)c2ccccc2n3CC)nnc1-c1ccco1 | -5 | -9 | -3 | 2 | 2 | 100 | . |

Five entries out of the list, arranged by formula weight, smallest number first:
| nr | SMILES | PKA-R1A act | pCIP destab | Yeast UUG start | Exocytosis inh | PKA-R2B activ | ABCB6 inh MLPCN | ABCB6 inh CP1 |
| --- | --- | --- | --- | --- | --- | --- | --- | --- |
| 40 | CCc1ccc(C(O)c2ncc(-c3ccccc3OC)[nH]2)cc1 (stereo not drawn) | . | . | -24 | -5 | . | 73* | 98 |
| 37 | COc1ccc(CN2CCN(c3ncccn3)CC2)c(C)c1C | 4 | -1 | 5 | 7 | -10 | 97 | . |
| 42 | Cc1cc(NC(=O)c2c(F)cccc2F)n(-c2nc3ccccc3[nH]2)n1 | -1 | -4 | -7 | 0 | -5 | 71* | 95 |
| 41 | Cc1cc(NC(=O)c2c(F)cccc2Cl)n(-c2nc3ccccc3[nH]2)n1 | -14 | 9 | -2 | -2 | 1 | 102 | . |
| 43 | CCn1c(SCC(=O)n2c(C)c(C)c3ccccc32)nnc1-c1ccco1 | -9 | -3 | . | 2 | -11 | 73* | 99 |
